This assay deals with truncated Polθ protein (Polθ-Hel containing the helicase domain (67-894)) (Homo sapiens (Human), UniProt O75417). The assay can be described thus: Polθ ATPase assay (Biological Assay 1, ADP-Glo luminescence). Particulars: read-out: Polθ ATPase assay IC50; Table B; compounds of Experimental Part B, in vitro. On the procedure: The Polθ ATPase assay was used to evaluate inhibitors of Polθ ATPase activity, in vitro. Experiments were performed using a truncated Polθ protein (Polθ-Hel containing the helicase domain (67-894), ATP and a DNA single strand Oligo (5′-CTGTCCTGCATGATG-3′) in the Polθ assay buffer (20 mM Tis-HCl (pH 8.8), MgCl2 5 mM, tween20 0.01%, NP40 0.01%, BSA 0.01%, DTT 1 mM). 2 μL of assay buffer containing Pole-Hel protein (0.5 nM) and DNA substrate (500 nM) was transferred into assay ready plates, containing 0.04 μL of compounds diluted in DMSO. After a 30 minutes incubation at 23° C. in the dark, the reaction was triggered by adding 2 μL of ATP (60 μM), in assay buffer. After 60 minutes at 23° C., 4 μl of ADP-Glo™ Reagent (Glo 1) was added followed by 40 minutes of incubation, then 8 μl of ADP-Glom kinase Detection Reagent (Glo 2) followed by 60 minutes of incubation at 23° C. Luminescence was then measured using Tecan F200 infinite plate reader. Raw data were analysed using GeneData to generate IC50 values.
The Polθ ATPase assay described in Biological Assay 1 above was used to evaluate inhibitors of Polθ ATPase activity for the compounds described in the Experimental Part B above, in vitro.
In general terms: ADP-Glo first removes unused ATP, then detects ADP through luciferase.

Sequences of proteins named here, by UniProt entry; tags and fusion partners are left off. Residues count along the entry.
UniProt O75417, 67-894 limits assumed: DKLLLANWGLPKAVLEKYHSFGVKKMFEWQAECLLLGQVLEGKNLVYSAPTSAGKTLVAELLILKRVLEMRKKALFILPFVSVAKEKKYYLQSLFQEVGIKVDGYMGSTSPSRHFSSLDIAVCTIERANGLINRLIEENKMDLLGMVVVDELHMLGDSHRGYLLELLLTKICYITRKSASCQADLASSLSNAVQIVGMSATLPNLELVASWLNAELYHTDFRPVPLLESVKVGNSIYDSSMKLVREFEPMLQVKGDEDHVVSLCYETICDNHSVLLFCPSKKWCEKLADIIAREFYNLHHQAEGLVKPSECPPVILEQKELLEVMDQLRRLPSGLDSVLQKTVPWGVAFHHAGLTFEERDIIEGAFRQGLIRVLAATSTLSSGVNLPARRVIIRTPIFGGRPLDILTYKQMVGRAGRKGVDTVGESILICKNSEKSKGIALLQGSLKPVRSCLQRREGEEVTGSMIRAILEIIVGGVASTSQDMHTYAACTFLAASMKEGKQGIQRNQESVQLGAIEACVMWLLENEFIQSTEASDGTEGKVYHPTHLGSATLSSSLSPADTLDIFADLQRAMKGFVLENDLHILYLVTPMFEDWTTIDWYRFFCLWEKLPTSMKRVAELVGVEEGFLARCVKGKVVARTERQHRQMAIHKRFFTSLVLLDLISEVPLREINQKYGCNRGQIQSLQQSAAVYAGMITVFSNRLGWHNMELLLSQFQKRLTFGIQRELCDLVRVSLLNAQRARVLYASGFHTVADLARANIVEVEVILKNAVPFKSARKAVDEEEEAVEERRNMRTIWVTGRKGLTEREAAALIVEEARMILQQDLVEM

Each structure is given as a SMILES string. pIC50: −log10 of the molar value.

`COc1ccc(C#N)cc1-c1cc(C)ncc1C(=O)Nc1nc2ccc(N3CCCCC3=O)nc2s1`: the negative logarithm of the IC50 (pIC50) (commonly −log10 of the IC50, conventionally taken in molar units) is > 7.00.

For the origin of these results see patent US20240327430A1 (Breakpoint Therapeutics GmbH, priority 2023, published 2024).
